# Assays:
# Protein sequences, listed by entry. Tags and fused reporters are not part of them.
# UniProt P32245, whole entry: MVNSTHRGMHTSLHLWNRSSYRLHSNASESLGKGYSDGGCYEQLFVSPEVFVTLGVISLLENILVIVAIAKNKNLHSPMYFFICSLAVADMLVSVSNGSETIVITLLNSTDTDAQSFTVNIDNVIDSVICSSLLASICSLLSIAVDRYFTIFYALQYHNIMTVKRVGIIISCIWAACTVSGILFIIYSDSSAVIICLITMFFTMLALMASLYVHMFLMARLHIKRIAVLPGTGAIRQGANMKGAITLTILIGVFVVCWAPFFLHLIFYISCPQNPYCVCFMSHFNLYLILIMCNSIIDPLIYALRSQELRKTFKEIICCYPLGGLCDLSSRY
# UniProt P41968, whole entry: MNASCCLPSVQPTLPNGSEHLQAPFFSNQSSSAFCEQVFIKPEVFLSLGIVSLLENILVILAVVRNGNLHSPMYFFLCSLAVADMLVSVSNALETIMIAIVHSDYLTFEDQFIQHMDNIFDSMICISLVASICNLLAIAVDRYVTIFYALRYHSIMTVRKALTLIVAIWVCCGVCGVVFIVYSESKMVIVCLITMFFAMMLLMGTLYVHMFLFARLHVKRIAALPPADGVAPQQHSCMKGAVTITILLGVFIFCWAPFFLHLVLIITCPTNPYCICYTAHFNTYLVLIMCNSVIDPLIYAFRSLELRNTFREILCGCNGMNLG
# UniProt Q01726, whole entry: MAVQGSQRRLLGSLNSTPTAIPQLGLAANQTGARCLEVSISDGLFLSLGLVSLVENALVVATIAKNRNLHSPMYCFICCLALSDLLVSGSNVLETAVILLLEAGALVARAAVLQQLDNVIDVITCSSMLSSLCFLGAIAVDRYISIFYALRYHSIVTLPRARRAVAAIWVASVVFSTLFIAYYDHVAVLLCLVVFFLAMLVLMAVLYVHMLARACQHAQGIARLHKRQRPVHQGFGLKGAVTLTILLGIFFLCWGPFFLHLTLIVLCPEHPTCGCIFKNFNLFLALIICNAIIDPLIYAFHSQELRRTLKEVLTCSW
# [1] = target: T1, human MC4 receptor (MC4R) (Homo sapiens, UniProt P32245); experiment: Radioligand binding competition, MC4R (Example 2, Tables 23 and 25, FIG. 9); details: 100 nM
# [2] = target: T2, human MC3 receptor (MC3R) (Homo sapiens, UniProt P41968); experiment: cAMP HTRF functional assay, antagonist mode, MC3R (Example 2, Table 22); details: 100 nM
# [3] = target: T3, human MC1 receptor (MC1R) (Homo sapiens, UniProt Q01726); experiment: Radioligand binding competition, MC1R (Example 2, Tables 18 and 25, FIG. 9); details: for % Binding Average: residual binding of radioligand; for % Binding 1: replicate 1, residual binding of radioligand; for % Binding 2: replicate 2, residual binding of radioligand
# [4] = target: T2, human MC3 receptor (MC3R); experiment: Radioligand binding competition, MC3R (Example 2, Tables 21 and 25, FIG. 9); details: 100 nM
# [5] = target: T3, human MC1 receptor (MC1R); experiment: cAMP HTRF functional assay, antagonist mode, MC1R (Example 2, Table 20); details: for % Inhibition Average: % inhibition of reference agonist at EC80; for % Inhibition 1: replicate 1, % inhibition of reference agonist at EC80; for % Inhibition 2: replicate 2, % inhibition of reference agonist at EC80
# [6] = target: T1, human MC4 receptor (MC4R); experiment: cAMP HTRF functional assay, antagonist mode, MC4R (Example 2, Table 24); details: 100 nM
# [7] = target: T3, human MC1 receptor (MC1R); experiment: cAMP HTRF functional assay, agonist mode, MC1R (Example 2, Table 19); details: for % Activation Average: % of reference agonist activity at EC100; for % Activation 1: replicate 1, % of reference agonist activity at EC100; for % Activation 2: replicate 2, % of reference agonist activity at EC100
# [8] = Cisplatin chemotherapy-related adverse side effects, body composition and tissue weight in rats (Example 3); details: three cycles of cisplatin (5, 3, 3 mg/kg i.p. weekly) with IgG control antibody, 21 days
# interleukin 1b (IL1b) = experiment: IL1b mRNA expression in hypothalamus by qPCR (Example 4); details: cisplatin 5, 3, 3 mg/kg i.p. weekly, 21 days
# [9] = target: melanocortin 1 receptor (MC1R) (Homo sapiens, UniProt Q01726); experiment: cAMP accumulation assay (HTRF), agonist and/or antagonist activity at MC1R (Example 1, Table 11); details: dose-response
# [10] = average, % residual binding of the radioligand
# [11] = replicate 1, % residual binding of the radioligand
# [12] = replicate 2, % residual binding of the radioligand
# [13] = average, % inhibition of reference agonist at EC80
# [14] = replicate 1, % inhibition of reference agonist at EC80
# [15] = replicate 2, % inhibition of reference agonist at EC80
compound,measurement,setting,value
COc1cc([C@@H](C)C(=O)N2CC[C@@]3(CCc4cc(-c5ncccn5)c(C)nc4N3)C2)c(F)cn1,% Binding Average,[1]; [10],3.45%
same,% Binding 1,[1]; [11],2.88%
same,% Binding 2,[1]; [12],4.02%
same,% Inhibition Average,[2]; [13],16.82%
same,% Inhibition 1,[2]; [14],22.22%
same,% Inhibition 2,[2]; [15],11.43%
same,% Binding Average,"[3]; Table 18, 100 nM",111.23%
same,% Binding 1,"[3]; Table 18, 100 nM",110.76%
same,% Binding 2,"[3]; Table 18, 100 nM",111.71%
same,% Binding Average,[4]; [10],93.02%
same,% Binding 1,[4]; [11],89.69%
same,% Binding 2,[4]; [12],96.36%
same,% Inhibition Average,[5]; 100 nM,3.93%
same,% Inhibition 1,[5]; 100 nM,11.58%
same,% Inhibition 2,[5]; 100 nM,−3.72%
same,% Inhibition Average,[6]; [13],111.41%
same,% Inhibition 1,[6]; [14],101.34%
same,% Inhibition 2,[6]; [15],121.48%
same,% Activation Average,[7]; 100 nM,7.27%
same,% Activation 1,[7]; 100 nM,3.57%
same,% Activation 2,[7]; 100 nM,10.97%
cisplatin,adverse side effects,[8],"persistent adverse side effects, including anorexia, weight loss, fatigue, fat mass and lean mass loss, muscle wasting, and leukopenia"
same,mRNA expression of IL1b,interleukin 1b (IL1b),reduced expression
CCCC[C@H](NC(C)=O)C(=O)N[C@H]1CC(=O)NCCCC[C@@H](C(=O)N[C@@H](C(=O)N2CCC[C@@H]2C(N)=O)C(C)C)NC(=O)[C@H](Cc2c[nH]c3ccccc23)NC(=O)[C@H](CCCN=C(N)N)NC(=O)[C@@H](Cc2ccc3ccccc3c2)NC(=O)[C@@H]2CCCN2C1=O,Hill Coefficient,[9],1.23
same,Top,[9],97.94%
same,EC50,[9]; cAMP,330 pM
same,% Binding Average,"[3]; Table 18, 10 nM",116.84%
same,% Binding 1,"[3]; Table 18, 10 nM",118.16%
same,% Binding 2,"[3]; Table 18, 10 nM",115.53%
same,% Binding Average,"[3]; Table 18, 100 nM",111.54%
same,% Binding 1,"[3]; Table 18, 100 nM",111.27%
same,% Binding 2,"[3]; Table 18, 100 nM",111.81%
same,% Inhibition Average,[5]; 10 nM,−9.63%
same,% Inhibition 1,[5]; 10 nM,−10.15%
same,% Inhibition 2,[5]; 10 nM,−9.10%
same,% Inhibition Average,[5]; 100 nM,−14.53%
same,% Inhibition 1,[5]; 100 nM,−14.89%
same,% Inhibition 2,[5]; 100 nM,−14.17%
same,% Activation Average,[7]; 10 nM,83.69%
same,% Activation 1,[7]; 10 nM,86.37%
same,% Activation 2,[7]; 10 nM,81.02%
same,% Activation Average,[7]; 100 nM,93.47%
same,% Activation 1,[7]; 100 nM,95.53%
same,% Activation 2,[7]; 100 nM,91.40%
